Broadly, the MIC is the least concentration at which growth counts as inhibited.

Type in all cases: cell-based
The subject of assay [1] is P. aeruginosa (ATCC 9027). The text has this:
(§1) The MIC and MBC assays were used to assess the inhibitory activities of all 5 analogues of R2AW on the growth of planktonic microorganisms. The MIC is the lowest concentration that prevents the viable growth of bacteria. The MBC is the lowest concentration that results in bacterial death. Six microorganisms were used to detect the antimicrobial activity of peptides, including Gram-positive bacteria S. aureus (NCTC 10788), MRSA (NCTC 12493), Enterococcus faecalis (E. faecalis) (NCTC 12697), Gram-negative bacteria E. coli […], Klebsiella pneumoniae (K. pneumoniae) (ATCC 43816), and Pseudomonas aeruginosa (P. aeruginosa) (ATCC 9027). According to the assay described previously, the microorganisms were inoculated at 37 °C overnight and diluted to 5 × 10^5 CFU/mL after reaching the logarithmic growth period. The peptide stock solution at the concentration of 512 × 10^2 μM was prepared and diluted to 100 μM by a 2-fold dilution. One μL of each concentration of peptide solution was incubated with 99 μL of bacterial subculture in the 96-well plate for 18 h at 37 °C. The absorbance was determined at a wavelength of 550 nm using a Synergy HT plate reader (Bio Tek, Washington, DC, USA). […] As for those wells that were clearly visible, 20 μL of the solution was dropped onto the Mueller Hinton agar (MHA) dish and then incubated at 37 °C overnight. The lowest concentration with no colony growth was determined as the MBC.

The subject of assay [2] is MRSA (NCTC 12493).
Source text: as §1

In assay [3] the test system is E. coli (ATCC 8739).
Source text: as §1

Assay [4] deals with S. aureus (NCTC 10788).
Source text: as §1

Consider `CC[C@H](C)[C@H](NC(=O)CN)C(=O)NCC(=O)N[C@@H](C)C(=O)N[C@H](C(=O)N[C@@H](CC(C)C)C(=O)N[C@@H](CCCCN)C(=O)N[C@H](C(=O)N[C@@H](CC(C)C)C(=O)N[C@H](C(=O)N[C@H](C(=O)NCC(=O)N[C@@H](CC(C)C)C(=O)N1CCC[C@H]1C(=O)N[C@@H](C)C(=O)N[C@@H](CC(C)C)C(=O)N[C@H](C(=O)N[C@@H](CO)C(=O)N[C@@H](Cc1c[nH]c2ccccc12)C(=O)N[C@H](C(=O)N[C@@H](CCCCN)C(=O)N[C@@H](CCCNC(=N)N)C(=O)N[C@@H](CCCCN)C(=O)N[C@@H](CCCNC(=N)N)C(=O)N[C@@H](CCC(N)=O)C(=O)N[C@@H](CCC(N)=O)C(N)=O)[C@@H](C)CC)[C@@H](C)CC)[C@@H](C)O)[C@@H](C)O)C(C)C)C(C)C` [Melittin, reference compound], for which the MIC in assay [1] worked out at 16 µM; in assay [2] it was 2 µM; in assay [3] it was 4 µM; in assay [4] it was 2 µM.

Source of the values: paper PMC10812557, “Progressive Design of a Ranatuerin-2 Peptide from Amolops wuyiensis: Enhancement of Bioactivity and In Vivo Efficacy” (Antibiotics, 2023).
